Assay results from ChEMBL document CHEMBL1134568.

Protein sequences, listed by entry. Tags and fused reporters are not part of them. Lines headed by an entry give the natural chain unless they say otherwise; changes in a name come on top.
UniProt P97266, whole entry, looked up: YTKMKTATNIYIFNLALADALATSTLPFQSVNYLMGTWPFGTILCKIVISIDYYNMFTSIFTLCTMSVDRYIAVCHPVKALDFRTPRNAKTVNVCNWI
UniProt O15399: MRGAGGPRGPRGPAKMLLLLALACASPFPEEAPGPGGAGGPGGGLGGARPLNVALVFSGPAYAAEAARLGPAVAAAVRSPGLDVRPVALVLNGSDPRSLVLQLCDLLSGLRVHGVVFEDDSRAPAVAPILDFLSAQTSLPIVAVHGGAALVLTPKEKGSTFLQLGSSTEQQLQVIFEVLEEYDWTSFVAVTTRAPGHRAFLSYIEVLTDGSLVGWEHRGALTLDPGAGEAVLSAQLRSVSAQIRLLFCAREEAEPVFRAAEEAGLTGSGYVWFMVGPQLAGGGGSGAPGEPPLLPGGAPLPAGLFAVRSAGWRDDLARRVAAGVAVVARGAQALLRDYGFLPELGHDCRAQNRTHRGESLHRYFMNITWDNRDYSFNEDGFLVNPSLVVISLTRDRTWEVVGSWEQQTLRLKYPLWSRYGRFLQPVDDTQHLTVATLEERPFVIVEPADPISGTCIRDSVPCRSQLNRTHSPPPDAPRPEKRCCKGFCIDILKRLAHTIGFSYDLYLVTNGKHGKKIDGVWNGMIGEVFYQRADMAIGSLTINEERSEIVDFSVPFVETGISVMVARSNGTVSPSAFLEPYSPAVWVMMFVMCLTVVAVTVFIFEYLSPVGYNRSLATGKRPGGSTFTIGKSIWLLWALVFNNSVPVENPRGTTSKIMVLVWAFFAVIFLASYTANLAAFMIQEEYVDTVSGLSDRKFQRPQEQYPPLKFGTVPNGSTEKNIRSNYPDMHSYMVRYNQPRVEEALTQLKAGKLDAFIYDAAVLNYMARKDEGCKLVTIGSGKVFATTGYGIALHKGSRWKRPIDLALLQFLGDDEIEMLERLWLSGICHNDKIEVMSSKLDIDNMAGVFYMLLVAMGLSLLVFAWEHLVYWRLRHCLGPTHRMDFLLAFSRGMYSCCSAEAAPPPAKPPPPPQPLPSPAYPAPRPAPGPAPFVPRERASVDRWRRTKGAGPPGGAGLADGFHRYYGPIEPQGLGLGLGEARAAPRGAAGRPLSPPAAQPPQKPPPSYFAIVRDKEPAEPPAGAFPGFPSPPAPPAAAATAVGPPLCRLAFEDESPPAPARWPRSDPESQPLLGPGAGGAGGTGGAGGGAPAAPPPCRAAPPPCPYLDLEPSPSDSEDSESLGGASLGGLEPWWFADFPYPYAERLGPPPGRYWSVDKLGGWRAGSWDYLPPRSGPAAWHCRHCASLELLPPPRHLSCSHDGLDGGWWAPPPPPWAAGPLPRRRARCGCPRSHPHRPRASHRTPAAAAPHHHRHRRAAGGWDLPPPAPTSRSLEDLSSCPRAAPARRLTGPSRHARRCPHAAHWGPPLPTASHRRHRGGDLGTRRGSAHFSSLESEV
UniProt O60391: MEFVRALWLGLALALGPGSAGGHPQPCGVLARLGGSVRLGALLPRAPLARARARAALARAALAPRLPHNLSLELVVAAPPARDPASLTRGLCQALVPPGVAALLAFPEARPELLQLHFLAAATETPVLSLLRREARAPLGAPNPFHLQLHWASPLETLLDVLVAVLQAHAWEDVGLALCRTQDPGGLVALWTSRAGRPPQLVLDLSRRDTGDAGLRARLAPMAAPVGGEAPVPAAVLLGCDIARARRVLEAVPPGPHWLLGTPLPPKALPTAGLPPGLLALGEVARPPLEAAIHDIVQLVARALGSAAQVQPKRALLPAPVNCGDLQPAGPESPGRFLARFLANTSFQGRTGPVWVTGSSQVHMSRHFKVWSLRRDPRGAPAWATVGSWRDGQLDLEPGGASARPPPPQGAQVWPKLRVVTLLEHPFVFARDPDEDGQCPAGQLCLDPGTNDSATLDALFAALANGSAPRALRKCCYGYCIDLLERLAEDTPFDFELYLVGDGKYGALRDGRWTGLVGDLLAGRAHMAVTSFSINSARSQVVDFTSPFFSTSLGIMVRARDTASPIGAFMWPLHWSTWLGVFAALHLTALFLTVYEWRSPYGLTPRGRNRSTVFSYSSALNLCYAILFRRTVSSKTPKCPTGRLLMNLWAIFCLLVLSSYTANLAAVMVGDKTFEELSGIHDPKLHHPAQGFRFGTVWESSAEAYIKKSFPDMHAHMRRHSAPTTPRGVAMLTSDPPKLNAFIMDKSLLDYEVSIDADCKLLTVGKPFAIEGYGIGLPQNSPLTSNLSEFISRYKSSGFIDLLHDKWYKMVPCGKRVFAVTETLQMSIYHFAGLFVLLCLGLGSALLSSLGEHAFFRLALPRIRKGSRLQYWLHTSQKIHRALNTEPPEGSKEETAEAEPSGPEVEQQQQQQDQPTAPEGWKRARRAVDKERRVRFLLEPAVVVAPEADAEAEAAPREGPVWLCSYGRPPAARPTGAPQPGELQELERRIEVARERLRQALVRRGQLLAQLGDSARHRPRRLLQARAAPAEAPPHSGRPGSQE
UniProt Q13224: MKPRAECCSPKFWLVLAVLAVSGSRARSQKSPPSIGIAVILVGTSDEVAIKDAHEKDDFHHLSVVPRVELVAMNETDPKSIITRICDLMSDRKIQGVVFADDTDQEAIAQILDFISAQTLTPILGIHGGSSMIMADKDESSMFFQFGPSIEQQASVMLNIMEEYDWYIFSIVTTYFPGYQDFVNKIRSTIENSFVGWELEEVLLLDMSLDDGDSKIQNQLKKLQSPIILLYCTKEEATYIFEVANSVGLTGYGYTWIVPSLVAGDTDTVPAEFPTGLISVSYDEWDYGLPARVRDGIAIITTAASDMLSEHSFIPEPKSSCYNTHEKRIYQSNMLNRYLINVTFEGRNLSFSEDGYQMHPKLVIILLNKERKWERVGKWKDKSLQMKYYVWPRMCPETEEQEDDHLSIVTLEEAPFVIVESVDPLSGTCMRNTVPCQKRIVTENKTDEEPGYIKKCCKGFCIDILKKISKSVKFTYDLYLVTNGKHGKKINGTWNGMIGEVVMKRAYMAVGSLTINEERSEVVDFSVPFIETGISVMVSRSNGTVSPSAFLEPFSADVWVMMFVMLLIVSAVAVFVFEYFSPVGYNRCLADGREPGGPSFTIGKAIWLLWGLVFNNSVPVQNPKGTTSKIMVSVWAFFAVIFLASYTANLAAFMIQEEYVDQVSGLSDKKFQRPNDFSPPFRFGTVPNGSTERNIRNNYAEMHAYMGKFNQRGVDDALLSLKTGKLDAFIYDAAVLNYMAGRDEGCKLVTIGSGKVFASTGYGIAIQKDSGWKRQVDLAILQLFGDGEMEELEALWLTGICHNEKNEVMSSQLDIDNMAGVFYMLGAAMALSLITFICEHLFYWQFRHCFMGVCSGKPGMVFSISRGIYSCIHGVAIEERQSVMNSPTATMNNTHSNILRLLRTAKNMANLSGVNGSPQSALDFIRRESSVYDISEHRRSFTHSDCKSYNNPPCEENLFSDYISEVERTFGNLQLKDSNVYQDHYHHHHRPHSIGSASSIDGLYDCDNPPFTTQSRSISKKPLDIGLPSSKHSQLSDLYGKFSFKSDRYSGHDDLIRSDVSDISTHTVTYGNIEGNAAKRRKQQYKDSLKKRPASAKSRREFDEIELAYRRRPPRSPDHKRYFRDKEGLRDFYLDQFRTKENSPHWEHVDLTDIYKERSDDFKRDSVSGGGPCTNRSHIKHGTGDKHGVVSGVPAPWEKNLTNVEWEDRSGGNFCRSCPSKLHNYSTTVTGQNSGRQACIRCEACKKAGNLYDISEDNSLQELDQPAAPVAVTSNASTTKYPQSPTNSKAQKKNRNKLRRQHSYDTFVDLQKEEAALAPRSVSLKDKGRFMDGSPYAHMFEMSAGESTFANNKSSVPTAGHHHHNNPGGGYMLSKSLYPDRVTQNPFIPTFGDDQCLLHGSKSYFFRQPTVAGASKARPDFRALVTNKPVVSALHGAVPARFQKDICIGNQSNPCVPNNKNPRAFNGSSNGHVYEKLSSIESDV
UniProt Q14957: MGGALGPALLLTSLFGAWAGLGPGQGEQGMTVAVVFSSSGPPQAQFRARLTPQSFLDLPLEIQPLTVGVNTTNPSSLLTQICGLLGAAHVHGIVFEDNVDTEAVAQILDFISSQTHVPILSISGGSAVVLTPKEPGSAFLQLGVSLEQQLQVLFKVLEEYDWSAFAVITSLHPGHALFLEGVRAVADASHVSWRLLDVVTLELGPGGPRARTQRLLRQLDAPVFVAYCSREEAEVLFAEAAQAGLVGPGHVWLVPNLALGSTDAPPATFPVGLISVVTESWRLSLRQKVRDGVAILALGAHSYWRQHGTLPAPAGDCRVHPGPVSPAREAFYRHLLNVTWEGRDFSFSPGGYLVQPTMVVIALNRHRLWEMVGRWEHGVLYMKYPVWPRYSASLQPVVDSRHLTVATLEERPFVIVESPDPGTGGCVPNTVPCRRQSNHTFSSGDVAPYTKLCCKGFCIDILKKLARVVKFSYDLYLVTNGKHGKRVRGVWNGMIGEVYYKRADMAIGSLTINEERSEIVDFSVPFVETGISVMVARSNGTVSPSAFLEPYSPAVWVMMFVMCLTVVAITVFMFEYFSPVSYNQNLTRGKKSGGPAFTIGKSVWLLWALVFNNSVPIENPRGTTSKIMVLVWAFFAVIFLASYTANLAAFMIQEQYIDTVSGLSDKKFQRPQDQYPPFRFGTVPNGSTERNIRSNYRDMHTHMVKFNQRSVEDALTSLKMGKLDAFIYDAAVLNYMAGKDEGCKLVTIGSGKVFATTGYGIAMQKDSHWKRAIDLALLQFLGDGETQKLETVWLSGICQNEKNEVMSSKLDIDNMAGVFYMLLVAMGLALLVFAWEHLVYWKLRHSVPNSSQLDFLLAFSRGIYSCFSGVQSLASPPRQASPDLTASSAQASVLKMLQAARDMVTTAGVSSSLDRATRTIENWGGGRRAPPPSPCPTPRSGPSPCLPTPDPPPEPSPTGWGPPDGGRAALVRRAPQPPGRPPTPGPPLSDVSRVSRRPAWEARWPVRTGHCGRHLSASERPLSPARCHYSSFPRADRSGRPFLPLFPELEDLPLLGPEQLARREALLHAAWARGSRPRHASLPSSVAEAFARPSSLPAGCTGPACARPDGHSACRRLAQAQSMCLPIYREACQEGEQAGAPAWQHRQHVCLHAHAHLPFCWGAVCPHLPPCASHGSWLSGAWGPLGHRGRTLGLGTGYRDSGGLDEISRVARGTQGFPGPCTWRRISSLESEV
UniProt Q8TCU5: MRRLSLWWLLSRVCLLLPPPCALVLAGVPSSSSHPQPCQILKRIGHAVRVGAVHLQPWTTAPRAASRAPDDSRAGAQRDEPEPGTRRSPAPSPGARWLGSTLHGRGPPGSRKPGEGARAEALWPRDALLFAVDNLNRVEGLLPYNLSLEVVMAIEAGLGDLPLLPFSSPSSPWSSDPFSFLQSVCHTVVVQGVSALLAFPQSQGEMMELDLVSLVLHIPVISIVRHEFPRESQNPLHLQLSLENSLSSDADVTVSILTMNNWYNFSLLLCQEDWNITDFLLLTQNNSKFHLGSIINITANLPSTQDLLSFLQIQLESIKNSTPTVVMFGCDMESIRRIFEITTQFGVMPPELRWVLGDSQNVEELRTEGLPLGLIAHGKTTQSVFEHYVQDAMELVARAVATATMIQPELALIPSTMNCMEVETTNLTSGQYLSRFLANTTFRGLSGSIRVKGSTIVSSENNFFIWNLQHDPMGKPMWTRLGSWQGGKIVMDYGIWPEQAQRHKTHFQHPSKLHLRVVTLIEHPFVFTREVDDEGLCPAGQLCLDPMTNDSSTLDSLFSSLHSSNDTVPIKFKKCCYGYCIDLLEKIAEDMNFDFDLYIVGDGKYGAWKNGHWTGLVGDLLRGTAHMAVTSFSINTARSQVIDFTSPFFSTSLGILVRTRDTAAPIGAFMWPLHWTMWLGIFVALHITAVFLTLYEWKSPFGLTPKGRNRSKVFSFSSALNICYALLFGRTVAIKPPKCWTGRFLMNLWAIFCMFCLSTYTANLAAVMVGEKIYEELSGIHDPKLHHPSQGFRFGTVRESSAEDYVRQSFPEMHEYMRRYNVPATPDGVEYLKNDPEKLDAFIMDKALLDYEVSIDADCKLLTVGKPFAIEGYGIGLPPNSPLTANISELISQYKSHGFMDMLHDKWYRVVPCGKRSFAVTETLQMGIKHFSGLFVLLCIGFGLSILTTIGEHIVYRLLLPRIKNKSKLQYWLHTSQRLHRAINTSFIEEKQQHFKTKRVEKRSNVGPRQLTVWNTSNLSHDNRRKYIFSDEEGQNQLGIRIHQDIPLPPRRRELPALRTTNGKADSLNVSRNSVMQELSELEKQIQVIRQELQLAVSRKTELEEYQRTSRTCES

Tests used:
Mu-type opioid receptor = Mu-type opioid receptor (Cavia porcellus, UniProt P97266); assay: Affinity to mu-receptor, using [3H]DAMGO as radioligand in homogenates of guinea pig brain membranes
[1] = target: Kappa-type opioid receptor (Cavia porcellus, UniProt P41144); assay: Affinity to opioid receptor kappa 1 using [3H]U-69593 as radioligand in homogenates of guinea pig brain membranes
[2] = target: T1, Glutamate [NMDA] receptor (UniProt O15399+O60391+Q05586+Q12879+Q13224+Q14957+Q8TCU5); assay: Affinity to N-methyl-D-aspartate glutamate receptor using [3H]MK-801 radioligand in pig brain cortex membranes
[3] = Affinity to sigma-1-receptor, using [3H]pentazocine as radioligand in homogenates of guinea pig brain membranes
[4] = target: T1, Glutamate [NMDA] receptor; assay: Affinity to NMDA receptor, using [3H]MK-801 as radioligand in pig brain cortex membranes

| Structure (SMILES) | Ki (Mu-type opioid receptor) [nM] | Ki [1] [nM] | Ki [2] [nM] | Ki [3] [nM] | Ki [4] [nM] |
| --- | --- | --- | --- | --- | --- |
| CCC(=O)N1CCN(C(=O)Cc2ccc(Cl)c(Cl)c2)[C@H]([C@H](C)N2CCCC2)C1 | 19100 | 0.67 | > 10000 | > 1000 |  |
| C[C@@H]([C@H]1CN(C(=O)OC(C)(C)C)CCN1C(=O)Cc1ccc(Cl)c(Cl)c1)N1CCCC1 | > 10000 | > 10000 | > 10000 | > 1000 |  |
| COC(=O)N1CCN(C(=O)Cc2ccc(Cl)c(Cl)c2)[C@@H]([C@@H](C)N2CCCC2)C1 [listing 1 of 2 here] | 6.8 | 2.4 | > 10000 |  |  |
| C[C@@H]([C@@H]1CN(C(=O)OC(C)(C)C)CCN1C(=O)Cc1ccc(Cl)c(Cl)c1)N1CCCC1 | > 1000 | 13 | > 10000 | > 1000 |  |
| C[C@H]([C@@H]1CN(C(=O)OC(C)(C)C)CCN1C(=O)Cc1ccc(Cl)c(Cl)c1)N1CCCC1 | > 1000 | 500 | > 10000 | > 1000 |  |
| CCCCN1CCN(C(=O)Cc2ccc(Cl)c(Cl)c2)C([C@H](C)N2CCCC2)C1 (some centres not stated) [listing 1 of 2 here] | > 1000 | 237 | > 10000 |  |  |
| c1ccc(C2(N3CCCCC3)CCCCC2)cc1 |  |  |  |  | 15.3 |
| COC(=O)N1CCN(C(=O)Cc2ccc(Cl)c(Cl)c2)[C@H]([C@H](C)N2CCCC2)C1 [listing 1 of 2 here] |  |  |  | > 1000 |  |
| CCCCN1CCN(C(=O)Cc2ccc(Cl)c(Cl)c2)C([C@@H](C)N2CCCC2)C1 (some centres not stated) | > 1000 | 134 | > 10000 | 81 |  |
| C[C@@H](C1CN(c2ccccc2)CCN1C(=O)Cc1ccc(Cl)c(Cl)c1)N1CCCC1 (some centres not stated) | > 10000 | > 10000 | > 10000 | > 1000 |  |
| CCC(=O)N1CCN(C(=O)Cc2ccc(Cl)c(Cl)c2)[C@@H]([C@@H](C)N2CCCC2)C1 | > 1000 | 4.2 | > 10000 | > 1000 |  |
| C[C@H](C1CN(c2ccccc2)CCN1C(=O)Cc1ccc(Cl)c(Cl)c1)N1CCCC1 (some centres not stated) [listing 1 of 2 here] |  |  |  | > 1000 |  |
| COC(=O)N1CCN(C(=O)Cc2ccc(Cl)c(Cl)c2)[C@@H]([C@@H](C)N2CCCC2)C1 [listing 2 of 2 here] |  |  |  | > 1000 |  |
| CN(C(=O)Cc1ccc(Cl)c(Cl)c1)C1CCCCC1N1CCCC1 (configuration not stated) |  | 0.49 |  |  |  |
| CCC(=O)N1CCN(C(=O)Cc2ccc(Cl)c(Cl)c2)[C@H]([C@@H](C)N2CCCC2)C1 | > 1000 | 43.4 | > 10000 | > 1000 |  |
| COC(=O)N1CCN(C(=O)Cc2ccc(Cl)c(Cl)c2)[C@H](CN2CCCC2)C1 |  | 0.45 |  |  |  |
| COC(=O)N1CCN(C(=O)Cc2ccc(Cl)c(Cl)c2)[C@@H]([C@H](C)N2CCCC2)C1 | > 10000 | 34.9 | > 10000 | > 1000 |  |
| CCC(=O)N1CCN(C(=O)Cc2ccc(Cl)c(Cl)c2)[C@@H]([C@H](C)N2CCCC2)C1 | > 10000 | > 10000 | > 10000 | > 1000 |  |
| COC(=O)N1CCN(C(=O)Cc2ccc(Cl)c(Cl)c2)[C@H]([C@H](C)N2CCCC2)C1 [listing 2 of 2 here] | 0.36 | 0.31 | > 10000 |  |  |
| CCCCN1CCN(C(=O)Cc2ccc(Cl)c(Cl)c2)C([C@H](C)N2CCCC2)C1 (some centres not stated) [listing 2 of 2 here] |  |  |  | 40.2 |  |
| C[C@H]([C@H]1CN(C(=O)OC(C)(C)C)CCN1C(=O)Cc1ccc(Cl)c(Cl)c1)N1CCCC1 | > 10000 | 206 | > 10000 | > 1000 |  |
| C[C@H](C1CN(c2ccccc2)CCN1C(=O)Cc1ccc(Cl)c(Cl)c1)N1CCCC1 (some centres not stated) [listing 2 of 2 here] | > 1000 | > 1000 | > 10000 |  |  |
| COC(=O)N1CCN(C(=O)Cc2ccc(Cl)c(Cl)c2)[C@H]([C@@H](C)N2CCCC2)C1 | > 1000 | 8.8 | > 10000 | > 1000 |  |
